# Antibody variant affinities, Ab-14 heavy chain, assay 1

The target is the same throughout: PDVDLGDISGINAS, from the HR2 region of SARS-CoV-2 spike.

Parent: Ab-14, a human scFv built as VH, a (GGGGS)3 linker, VL. Only the CDRs of the heavy chain vary.
VH: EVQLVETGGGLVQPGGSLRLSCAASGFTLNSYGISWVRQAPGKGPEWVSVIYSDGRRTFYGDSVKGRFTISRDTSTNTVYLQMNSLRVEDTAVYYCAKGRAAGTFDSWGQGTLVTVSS
VL: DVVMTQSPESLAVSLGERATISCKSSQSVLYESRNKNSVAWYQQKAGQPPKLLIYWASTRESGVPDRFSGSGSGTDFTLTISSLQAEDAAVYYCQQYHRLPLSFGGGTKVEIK

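Library AAYL49 holds single substitutions and randomly drawn double and triple substitutions in the CDRs. The assay is AlphaSeq: two haploid yeast populations carry antibody and antigen on their surface. Mating (16 h, 30 °C) was followed by selection of diploids and sequencing of their barcodes. A regression on co-assayed BCL2-family reference pairs converts the normalised counts of each replicate to an apparent Kd. The assay was run in three technical replicates.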

Changes read parent residue, position, new residue, counted from the first residue of the VH shown. This list gathers variants with a substitution at S31 (VH, numbered from residue 1). Kd is apparent (estimated from mating counts) and averaged on the log scale over replicates with a signal. Smaller is tighter. "nd" marks a missing value. The strain was present, yet no cells mated with the target were sequenced in any replicate, which points to weak or no binding. In this assay the parent's reference entry averaged 4.4 nM; its copy inside this library read 13 µM (one replicate of three). Empty control strains, which show no peptide, gave a signal in 15% of pairings with library AAYL49; the median was 11 µM and 95% of these signals were weaker than 680 nM. No background was subtracted.

changes	Kd (apparent)	seen in
T28I S31V D106Y	160 µM	1/3
S31I K65W G99C	nd	0/3
N30Y S31C F59W	360 nM	3/3
N30S S31N T104A	nd	0/3
S31K G55R F59T	21 µM	2/3
L29W S31L V50S	nd	0/3
S31G R56N G61M	130 nM	2/3
N30H S31Y G61I	1.2 µM	1/3
S31L V50G R100N	nd	0/3
G26Q S31G R57Q	14 µM	2/3
S31R G33D S35V	nd	0/3
S31Q Y52N D54Q	220 µM	1/3
N30E S31D Y32M	7.0 nM	3/3
S31F G55R K65C	nd	0/3
S31T R57D A101L	9.6 µM	3/3
L29S S31L D54V	29 µM	3/3
S31K R57F	34 µM	1/3
T28S S31H G61R	1.3 µM	1/3
S31T Y32P K65T	66 µM	1/3
S31A F105P D106M	370 nM	3/3
S31T I34V	4.5 nM	3/3
S31A Y60E S63A	1.8 µM	3/3
S31M K65V A101F	10 nM	3/3
S31R Y52D R100V	nd	0/3
F27G S31T	16 nM	3/3
S31G G33M S107R	700 µM	1/3
S31T Y52G R56F	nd	0/3
S31F R57S	nd	0/3
S31P I51G	nd	0/3
S31N S53F R57I	nd	0/3
S31F G99V T104M	nd	0/3
G26W S31E A102E	130 nM	3/3
G26F S31Y G33R	nd	0/3
S31K F59H G61E	59 nM	3/3
S31G S53V G61N	nd	0/3
S31W	75 nM	3/3
S31V R100F	38 nM	3/3
T28F S31F G103I	nd	0/3
S31I D54C G103D	nd	0/3
S31A V50F Y60M	nd	0/3
S31V Y52Q R56W	nd	0/3
N30A S31A S63L	nd	0/3
S31N	4.0 nM	3/3
S31M V64H	nd	0/3
S31L V64T K65W	nd	0/3
S31Q S35F I51L	nd	0/3
S31C R57A	nd	0/3
G26I S31I S107T	940 nM	3/3
S31G S35D R56M	nd	0/3
G26E S31C A102L	nd	0/3

The first 4 entries again:

changes	Kd (apparent)	seen in
T28I S31V D106Y	160 µM	1/3
S31I K65W G99C	nd	0/3
N30Y S31C F59W	360 nM	3/3
N30S S31N T104A	nd	0/3

From the AlphaSeq antibody data of Engelhart et al. 2022 (doi:10.1038/s41597-022-01779-4), copy in the FLAb collection.